Laboratory results published in PubChem BioAssay AID1016 (Sanford-Burnham Center for Chemical Genomics, 2008).
The list shows a part of the results, in another mix than the full data. The source made the active and inactive calls.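 How the source made its calls: active means activation factor of 2 or more at 20 µM, a signal rise over negative controls twice the positive control's; inactive means the rest.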

test system: alkaline phosphatase, intestinal [Bos taurus]; assay: bovine intestinal alkaline phosphatase activators, primary screen, biochemical, bovine IAP, CDP-star luminescence (AID 1016); settings: purified bovine IAP, 30 min, at 20 µM, fold of DMSO-control signal, blank-subtracted; hits give high values

Row | SMILES | activation factor
1 | CCOC(=O)c1ccc(NP(C)(=O)Oc2ccccc2)cc1 (stereo not given) | inactive: 0.9
2 | COc1ccccc1OP(C)(=O)Nc1ccc(C)cc1 (stereo not given) | inactive: 0.9
3 | Cc1ccc(NP(C)(=O)Oc2ccccc2)c(C)c1 (stereo not given) | inactive: 1
4 | CCN(CC)C(=S)SC(NC=O)C(Cl)(Cl)Cl (stereo not given) | inactive
5 | COc1ccccc1OP(C)(=O)Nc1cc(Cl)ccc1C (stereo not given) | inactive: 1
6 | CC(C)NC(=O)NP(=O)(Oc1ccccc1)Oc1ccccc1 | inactive
7 | O=[N+]([O-])c1cc([N+](=O)[O-])c(-c2ccn[nH]2)s1 | inactive
8 | COc1ccc(OP(C)(=O)Nc2cccc(F)c2)cc1 (stereo not given) | inactive: 1
9 | Cc1cc(C)cc(OP(C)(N)=O)c1 (stereo not given) | inactive: 1.2
10 | CC(C)(C)c1ccc(OP(C)(=O)Nc2ccc(SC(F)(F)F)cc2)cc1 (stereo not given) | inactive: 1
11 | Cc1cccc(C)c1OP(C)(N)=O (stereo not given) | inactive: 1.2
12 | Cc1ccc2nc3c(c(C)c2c1)CC(C(Cl)Cl)S3 (stereo not given) | inactive
13 | O=[N+]([O-])c1ccc2c(c1)C=Nc1ccccc1O2 | inactive: 0.9
14 | COc1ccc(N/C(=N/P(=O)(N2CCOCC2)N2CCOCC2)N2CCOCC2)cc1 | inactive
15 | Cc1c2c(nc3ccccc13)SC(C(Cl)Cl)C2 (stereo not given) | inactive
16 | O=C(OC1CN2CCC1CC2)C12CC3CC(CC(C3)C1)C2 (stereo not given) | inactive
17 | CCN(CC)CCCOC(=O)C(O)(c1ccccc1)c1ccccc1 | inactive: 1.1
18 | Cc1cc(=O)[nH]c(N[N+](=O)[O-])n1 | inactive
19 | COc1ccc2nc(NP(=O)(c3ccccc3)c3ccccc3)sc2c1 | inactive
20 | CCOP(C)(=S)SCC(=O)NC(C)C(=O)O (stereo not given) | inactive: 1
21 | CCOC(=O)c1ccc(NP(C)(=O)Oc2ccc(OC)cc2)cc1 (stereo not given) | inactive: 0.9
22 | CCC(C)N(CC(C)C)C(=S)SC(NC(C)=O)C(Cl)(Cl)Cl (stereo not given) | inactive
23 | CP(=O)(Nc1ccccn1)Oc1ccc(Cl)cc1 (stereo not given) | inactive: 0.9
24 | Cc1cccc(C)c1OP(C)(=O)Nc1ccc(SC(F)(F)F)cc1 (stereo not given) | inactive: 1

Row | SMILES | activation factor
25 | COP1(=S)c2c(C)nn(CCC#N)c2N=C(c2ccc(F)cc2)N1C (stereo not given) | inactive
26 | CP(=O)(Oc1ccccc1)OC(c1ccccc1)C(F)(F)F (stereo not given) | inactive: 1.2
27 | CP(=O)(NC(=O)Nc1ccccc1)Oc1ccccc1 (stereo not given) | inactive: 0.9
28 | Cc1cc(C)cc(OP(C)(=O)Nc2ccc(SC(F)(F)F)cc2)c1 (stereo not given) | inactive: 1
29 | CP(=S)(Nn1cnnc1)Oc1ccccc1 (stereo not given) | inactive: 0.9
30 | COc1ccccc1OP(C)(=O)Nc1ccccc1 (stereo not given) | inactive: 0.9
31 | CP(=O)(Nc1ccccc1Br)Oc1ccccc1 (stereo not given) | inactive: 0.9
32 | Cc1cc(SC(NC(=O)c2ccccc2)C(Cl)(Cl)Cl)nc(C(C)C)n1 (stereo not given) | inactive
33 | O=P1(Nc2ncccn2)COc2ccccc2OC1 | inactive
34 | COc1ccccc1OP(C)(=O)Nc1c(C)cccc1C (stereo not given) | inactive: 1
35 | CN1CCCCC1COC(=O)C1(O)c2ccccc2CCc2ccccc21 (stereo not given) | inactive: 1.1
36 | CP(=O)(Nc1ccc(SC(F)(F)F)cc1)Oc1ccccc1 (stereo not given) | inactive: 0.7
37 | CCCOc1ccc(NP(C)(=O)Oc2ccc(Cl)cc2)cc1 (stereo not given) | inactive: 1
38 | Cc1nn(-c2ccccc2)c2c1P(=O)(N1CCOCC1)N(C)C(c1ccccc1)=N2 (stereo not given) | inactive
39 | CN(C)C1(CNC(=O)c2ccc(S(C)(=O)=O)cc2)CCCCC1 | inactive
40 | Cc1nc2ccc3ccccc3c2s1.O=[N+]([O-])c1cc([N+](=O)[O-])c(O)c([N+](=O)[O-])c1 | inactive: 0.8
41 | O=P1(Nc2ccccn2)COc2ccccc2OC1 | inactive
42 | O=[N+]([O-])c1cc([N+](=O)[O-])c(-n2nnc3ccccc32)c([N+](=O)[O-])c1 | inactive: 1.2
43 | CP(=O)(Nc1cccc(Br)c1)Oc1ccccc1 (stereo not given) | inactive: 1
44 | Cc1cc(C)cc(OP(C)(=O)Nc2ccccn2)c1 (stereo not given) | inactive: 0.9
45 | Cc1ccc(C)c(NP(C)(=O)Oc2ccccc2)c1 (stereo not given) | inactive: 0.9
46 | CCOP(=O)(Nc1cccc2ccccc12)OCC | inactive
47 | Cc1cc(C)cc(OP(C)(=O)Nc2ccc(C)cc2C)c1 (stereo not given) | inactive: 0.9
48 | CCOC(=O)c1ccc(NP(C)(=O)Oc2cc(C)cc(C)c2)cc1 (stereo not given) | inactive: 0.8

Row | SMILES | activation factor
49 | CC1=NCCc2c1[nH]c1ccccc21.O=[N+]([O-])c1cc([N+](=O)[O-])c(O)c([N+](=O)[O-])c1 | inactive: 1.1
50 | O=P(Nc1nccs1)(Oc1ccccc1)Oc1ccccc1 | inactive
51 | CCN(CC)CCCOC(=O)C(O)(c1ccccc1)C1CCCCC1 (stereo not given) | inactive
52 | CCC(=O)N1C2C3N(C(=O)CC)C1C1N(C(=O)CC)C(C(N1C(=O)CC)N3C(=O)CC)N2C(=O)CC | inactive
53 | Cc1ccc(OP(=O)(Nc2ccccn2)Oc2ccc(C)cc2)cc1 | inactive
54 | CC(=O)NC(SC(=S)N(CC(C)C)CC(C)C)C(Cl)(Cl)Cl (stereo not given) | inactive
55 | CP(=O)(Nc1ccccc1)Oc1ccc(F)cc1 (stereo not given) | inactive: 1
56 | O=C(NC1CCS(=O)(=O)C1)NP(=S)(Oc1ccccc1)Oc1ccccc1 (stereo not given) | inactive
57 | COc1ccc(OP(C)(=O)Nc2ccc(SC(F)(F)F)cc2)cc1 (stereo not given) | inactive: 1.3
58 | CCOC(=O)c1ccc(NP(C)(=O)Oc2ccc(F)cc2)cc1 (stereo not given) | inactive: 1
59 | O=C(OCCN1CCN(CCOCc2ccccc2)CC1)C(O)(c1ccccc1)c1ccccc1 | inactive: 0.7
60 | CC(=O)Nc1ccc(Oc2c([N+](=O)[O-])cc([N+](=O)[O-])cc2[N+](=O)[O-])cc1 | inactive
61 | O=P1(Nc2nc3ccc(Cl)cc3s2)COc2ccccc2O1 (stereo not given) | inactive
62 | CC(C)c1ccc(OP(C)(=O)Nc2ccc(SC(F)(F)F)cc2)cc1 (stereo not given) | inactive: 0.9
63 | CP(=O)(Nc1ccccc1F)Oc1ccccc1 (stereo not given) | inactive: 0.9
64 | CP(=O)(Nc1ccc2c(c1)OCCO2)Oc1ccccc1 (stereo not given) | inactive: 1
65 | Cc1ccccc1NP(C)(=O)Nc1ccccc1C | inactive: 1
66 | CC(C)C(=O)NC(Sc1ccccc1)C(Cl)(Cl)Cl (stereo not given) | inactive
67 | O=P(Nc1nccs1)(c1ccccc1)c1ccccc1 | inactive
68 | CCOP(C)(=S)SCC(=O)NC(C)(CC)C(=O)O (stereo not given) | inactive: 1.1
69 | O=[N+]([O-])c1cc([N+](=O)[O-])c(NCC2CCS(=O)(=O)C2)c([N+](=O)[O-])c1 (stereo not given) | inactive: 1
70 | CC(=O)NC(SC(=S)N(C)C)C(Cl)(Cl)Cl (stereo not given) | inactive
